This series deals with Huh-7.5.1 cells. Conditions: 10 µM.

Consider `Clc1ccc(COC(Cn2ccnc2)c2ccc(Cl)cc2Cl)cc1` (stereo not shown) [Econazole], for which the “Viability Percent DMSO” value came out at 104 Percent DMSO.

These data come from paper PMC12282101, “Heat shock protein 90 chaperone activity is required for hepatitis A virus replication” (Journal of Virology, 2025).
